Experimental data: PubChem BioAssay AID743247 (Broad Institute, 2014)
This is a selection; strong and weak results do not stand in their true shares. Calls of active or inactive are those of the source.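 The calls were made as follows: active = mean inhibition across replicates of 30% or more, regardless of how many single replicates reach that level; inconclusive = mean under 30% yet at least half of replicates reach 30%; inactive = the rest.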

Assay: blockers of fibronectin fibrillogenesis by fibroblasts – AH1F cells, Alexa488-fibronectin fluorescence, plate reader, primary screen (AID 743247);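 also: positive control wells lacked labelled fibronectin entirely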
Settings: Alexa488-fibronectin deposition fluorescence, overnight, at 12.6 µM, stronger effect = higher value
In short: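 Assay system: AH1F fibroblasts assembling fluorescent fibronectin matrix; Amount: 10000 AH1F cells per well; Buffer or medium: DMEM, 2% serum; Probe or stimulus: Alexa488-fibronectin, 24 nM final in well; Doses: single compound dose, delivered by pin transfer; Incubation: 1 h adhesion, overnight exposure; Measured by: fluorescence 485/525 nm; Read-out: fibronectin deposition inhibition.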

Compound	inhibition
CCCOc1ccc(NP(C)(=O)Oc2ccc(Cl)cc2)cc1 (stereo not given)	inactive: 0.605%
CP(=O)(Nc1ccc(SC(F)(F)F)cc1)Oc1ccccc1 (stereo not given)	inactive: -0.603%
CN1CCCCC1COC(=O)C1(O)c2ccccc2CCc2ccccc21 (stereo not given)	inactive: 8.67%
COc1ccccc1OP(C)(=O)Nc1c(C)cccc1C (stereo not given)	inactive: 2.2%
CCOC(=O)C(CC)C1=NC(C)(C)Cc2ccccc21.O=[N+]([O-])c1cc([N+](=O)[O-])c(O)c([N+](=O)[O-])c1 (stereo not given)	inactive: -6.64%
O=[N+]([O-])c1cc([N+](=O)[O-])c(Nc2nnnn2CCO)c([N+](=O)[O-])c1	inactive: 7.42%
CP(=O)(Nc1ccccc1Br)Oc1ccccc1 (stereo not given)	inactive: -3.6%
COc1ccccc1OP(C)(=O)Nc1ccccc1 (stereo not given)	inactive: -0.471%
O=[N+]([O-])c1cc([N+](=O)[O-])c(O)c([N+](=O)[O-])c1.c1ccc(Oc2ccncc2)cc1	inactive: -2.65%
CCOC(=O)c1ccc(NP(C)(=O)Oc2ccc(OC)cc2)cc1 (stereo not given)	inactive: 2.68%
Cc1cc(C)cc(OP(C)(=O)Nc2ccc(SC(F)(F)F)cc2)c1 (stereo not given)	inactive: -11.4%
CCc1ccc(OP(C)(=O)N2CCN(c3ccc([N+](=O)[O-])cc3)CC2)cc1 (stereo not given)	inactive: -0.891%
CP(=O)(Nc1ccc(SC(F)(F)F)cc1)Oc1ccc(Cl)cc1 (stereo not given)	inactive: -6.72%
Cc1cccc(C)c1OP(C)(=O)Nc1ccc(SC(F)(F)F)cc1 (stereo not given)	inactive: -7.44%
COc1ccccc1-c1ccccn1.O=[N+]([O-])c1cc([N+](=O)[O-])c(O)c([N+](=O)[O-])c1	inactive: 11.4%
CCN(CC)CCCOC(=O)C(O)(c1ccccc1)c1ccccc1	inactive: -0.467%
Cc1cc(C)cc(OP(C)(N)=O)c1 (stereo not given)	inactive: -5.9%
COc1ccc(OP(C)(=O)Nc2cccc(F)c2)cc1 (stereo not given)	inactive: 6.75%
COc1ccccc1OP(C)(=O)Nc1cc(Cl)ccc1C (stereo not given)	inactive: 3.34%
Cc1ccc(NP(C)(=O)Oc2ccccc2)c(C)c1 (stereo not given)	inactive: 1.04%
CCOC(=O)c1ccc(NP(C)(=O)Oc2ccccc2)cc1 (stereo not given)	inactive: -8.21%
O=[N+]([O-])c1ccc2c(c1)C=Nc1ccccc1O2	inactive: 2.41%
Cc1cccc(C)c1OP(C)(N)=O (stereo not given)	inactive: 1.87%
CC(C)(C)c1ccc(OP(C)(=O)Nc2ccc(SC(F)(F)F)cc2)cc1 (stereo not given)	inactive: 2.28%
O=[N+]([O-])c1cc([N+](=O)[O-])c(Nc2cccnc2)c([N+](=O)[O-])c1	inactive: -1.09%
